Laboratory results from patent US6476032B2, “2,3,4,4a-tetrahydro-1H-pyrazino[1,2-a]quinoxalin-5(6H)one derivatives” (Wyeth, priority 1998, dated 2002).

Amino acid sequences for entries named in this document (tags omitted). Residues count along the entry.
UniProt P28335, 33-458: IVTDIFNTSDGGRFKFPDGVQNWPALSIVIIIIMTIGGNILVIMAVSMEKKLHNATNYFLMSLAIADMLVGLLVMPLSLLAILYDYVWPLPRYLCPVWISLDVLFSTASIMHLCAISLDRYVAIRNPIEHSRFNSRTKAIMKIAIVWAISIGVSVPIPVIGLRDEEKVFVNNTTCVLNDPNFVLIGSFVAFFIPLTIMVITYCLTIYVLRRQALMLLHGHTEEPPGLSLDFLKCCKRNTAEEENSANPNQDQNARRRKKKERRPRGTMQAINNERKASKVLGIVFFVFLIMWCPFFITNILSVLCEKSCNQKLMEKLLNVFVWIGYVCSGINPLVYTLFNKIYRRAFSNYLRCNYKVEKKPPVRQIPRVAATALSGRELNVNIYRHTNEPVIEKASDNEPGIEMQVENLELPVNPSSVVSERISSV

Columns and labels:
human 5-HT2C receptor = target: T1, human 5-HT2C receptor (Homo sapiens, UniProt P28335); assay: Stimulation of [3H] Inositol Monophosphate Production by 5HT2C Agonists; format: cell-based
T1 construct: expressed in transfected cells; host or cells: CHO cells

[1] = target: T2, human 5-hydroxy-tryptamine2C (h5HT2C) receptor (Homo sapiens, UniProt P28335); assay: 5HT2C Receptor Binding Test Procedure ([125I] DOI); details: reference compounds; [125I] DOI binding, CHO cell membranes; read-out: Ki value and 95% confidence interval
T2 construct: expressed in transfected cells; host or cells: CHO (Chinese Hamster Ovary) cells; membranes

**Q.** Which “EMAX (relative to 5-HT)” value (human 5-HT2C receptor; reference compound, relative to 5-HT) does the source give for `Clc1cccc(N2CCNCC2)c1` [mCPP, meta-chlorophenylpiperazine, reference compound] here?
**A.** Its value is 60%.

**Q.** And the EC50 (human 5-HT2C receptor; reference compounds, [3H] IP1 production in CHO cells)?
**A.** The EC50 was 46.8 nM.

**Q.** What about the Ki [1] of the same compound?
**A.** Its Ki is 6.5 nM.
